Source: PubChem BioAssay AID1745845 (National Center for Advancing Translational Sciences (NCATS), 2022)
The list shows a part of the results, in another mix than the full data. Records with an inconclusive call do not appear. The source made the active and inactive calls. Calls follow the shape of the dose curve; as a rule, active = well fitted inhibition curve with a large enough effect; inconclusive = small, poorly fitted or top-dose-only effect; inactive = no such curve, though single readings can be large or run the other way.
% is scaled to controls: 0 for no effect and ±100 for the full control effect.

Experiment: Primary qHTS for Inhibitors of ATXN expression; also: nearly all actives have a fitted effect of over 55% in size
Details: HEK-293 ATXN2-luciferase reporter, luminescence, 24 h; series mostly up to 57 µM
In the case of `CCOC(=O)Nc1cccc([As](=O)(O)O)c1`, the activity change, negative = inhibition is reported as “inactive”. For `O=P(Nc1ccccn1)(c1cccc2ccccc12)c1cccc2ccccc12`, the activity change, negative = inhibition was “inactive”. For `CC1CCNP(=O)(N(CCCl)CCCl)O1` (stereo not drawn), the activity change, negative = inhibition was “inactive”. With `CCOC(=O)Nc1ccc([As](=O)(O)O)c(O)c1` the activity change, negative = inhibition was “inactive”. For `Cc1cc(SC(NC(=O)c2ccccc2)C(Cl)(Cl)Cl)nc(C(C)C)n1` (stereo not drawn), the activity change, negative = inhibition was “inactive”. In the case of `CCCCOc1ccc(C(=O)NCC2(N3CCCCC3)CCCCC2)cc1OC`, the activity change, negative = inhibition is reported as “inactive”. With `CCOC(=O)c1ccc(NC(=O)C(C)(CCl)SC)cc1` (stereo not drawn) the activity change, negative = inhibition was “inactive”. With `O=C(OC1CN2CCC1CC2)c1cccc([N+](=O)[O-])c1` (stereo not drawn) the activity change, negative = inhibition was “inactive”. In the case of `COC(=O)C1(C)COP(=O)(N2CCCC2)OC1` (stereo not drawn), the activity change, negative = inhibition is reported as “inactive”. For `COP1(=S)c2c(C)nn(CCC#N)c2N=C(c2ccc(F)cc2)N1C` (stereo not drawn), the activity change, negative = inhibition was “inactive”. For `O=C(COc1ccccc1)OC1CN2CCC1CC2` (stereo not drawn), the activity change, negative = inhibition was “inactive”. In the case of `COc1ccc(N/C(=N/P(=O)(N2CCOCC2)N2CCOCC2)N2CCOCC2)cc1`, the activity change, negative = inhibition is reported as “inactive”. In the case of `O=[N+]([O-])c1cc(Oc2ccc([N+](=O)[O-])cc2C(F)(F)F)cc([N+](=O)[O-])c1`, the activity change, negative = inhibition is reported as “inactive”. With `Cc1cc(=O)[nH]c(N[N+](=O)[O-])n1` the activity change, negative = inhibition was “inactive”. In the case of `O=C(OC1CN2CCC1CC2)C12CC3CC(CC(C3)C1)C2` (stereo not drawn), the activity change, negative = inhibition is reported as “inactive”. With `COc1cc(I)ccc1[As](=O)(O)O` the activity change, negative = inhibition was “inactive”. For `COc1ccc2nc(NP(=O)(c3ccccc3)c3ccccc3)sc2c1`, the activity change, negative = inhibition was “inactive”. For `O=P1(N(CCCl)CCCl)Nc2ccccc2N1`, the activity change, negative = inhibition was “inactive”. For `O=P1(N(CCCl)CCCl)OCCCN1CCCl` (stereo not drawn), the activity change, negative = inhibition was “inactive”. In the case of `COC(=O)C1(C)COP(=O)(N2CCCCCC2)OC1` (stereo not drawn), the activity change, negative = inhibition is reported as “inactive”. For `ClCCSc1nnc(-c2cccnc2)o1`, the activity change, negative = inhibition was “inactive”. With `O=C(OC1CN2CCC1CC2)c1cccc2[nH]cnc12` (stereo not drawn) the activity change, negative = inhibition was “inactive”. In the case of `CCN(CC)C(=S)SC(NC=O)C(Cl)(Cl)Cl` (stereo not drawn), the activity change, negative = inhibition is reported as “inactive”. For `CC(C)NC(=O)NP(=O)(Oc1ccccc1)Oc1ccccc1`, the activity change, negative = inhibition was “inactive”. For `COc1cc(C(=O)NCC2(N3CCOCC3)CCCCC2)ccc1OCC(C)C`, the activity change, negative = inhibition was “inactive”. With `O=[N+]([O-])c1ccc(-c2cc([N+](=O)[O-])c(O)c([N+](=O)[O-])c2)cc1` the activity change, negative = inhibition was “inactive”. In the case of `O=[As](O)(c1ccc(O)cc1)c1ccccc1O`, the activity change, negative = inhibition is reported as “inactive”. In the case of `Cc1ccc2nc3c(c(C)c2c1)CC(C(Cl)Cl)S3` (stereo not drawn), the activity change, negative = inhibition is reported as inactive: -0.605% [at 11.3 µM]. With `[N-]=[N+]=NC1CCCCC1NC(=O)c1cc([N+](=O)[O-])cc([N+](=O)[O-])c1` (stereo not drawn) the activity change, negative = inhibition was “inactive”. In the case of `CCN(N=Nc1nonc1N)c1nonc1N`, the activity change, negative = inhibition is reported as “inactive”. With `CCCC1OP(N)(=O)OCC1CC` (stereo not drawn) the activity change, negative = inhibition was “inactive”. For `O=C(O)c1ccccc1[As](=O)(O)O`, the activity change, negative = inhibition was “inactive”. For `CC(=O)Nc1ccc([As](=O)(O)O)cc1`, the activity change, negative = inhibition was “inactive”. For `O=P(Nc1nc2ccc(Cl)cc2s1)(c1ccccc1)c1ccccc1`, the activity change, negative = inhibition was “inactive”. With `Cc1ccc(NP(=O)(Oc2ccccc2F)Oc2ccccc2F)nc1` the activity change, negative = inhibition was “inactive”. With `CN(C(=O)Cc1ccc(Cl)c(Cl)c1)[C@H]1CCCC[C@@H]1N1CCCC1` the activity change, negative = inhibition was “inactive”. In the case of `CCOP(=O)(Nc1ccccc1)OCC`, the activity change, negative = inhibition is reported as “inactive”. With `Cc1cc(SC(NC(=O)c2ccc(F)cc2)C(Cl)(Cl)Cl)ncn1` (stereo not drawn) the activity change, negative = inhibition was “inactive”.
